Data: patent US20250368649A1, “TETRAHYDROPYRIDOPYRIMIDINE PAN-KRAS INHIBITORS” (Mirati Therapeutics, Inc., priority 2022, published 2025)

By UniProt entry, the sequences of proteins in these tests, tags left out. Where a name states a change or a piece, a line headed by the entry shows the natural chain unless it says otherwise.
UniProt P01116: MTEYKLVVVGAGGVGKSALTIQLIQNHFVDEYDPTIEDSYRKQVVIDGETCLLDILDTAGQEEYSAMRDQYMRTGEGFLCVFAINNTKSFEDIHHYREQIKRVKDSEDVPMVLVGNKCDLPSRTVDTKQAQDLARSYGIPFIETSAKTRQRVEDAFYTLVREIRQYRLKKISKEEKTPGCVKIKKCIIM

Tests used:
Experiment in all cases: biochemical
[1] = target: KRas G12D (Homo sapiens, UniProt P01116, G12D); conditions: Binding to KRas (IC50 nM) G12D, TR-FRET displacement
[2] = target: KRas G12R (Homo sapiens, UniProt P01116, G12R); conditions: Binding to KRas (IC50 nM) G12R, TR-FRET displacement
[3] = target: KRas G12V (Homo sapiens, UniProt P01116, G12V); conditions: Binding to KRas (IC50 nM) G12V, TR-FRET displacement

Row | SMILES | IC50 [1] [nM] | IC50 [2] [nM] | IC50 [3] [nM]
1 | O=S1(=O)NCC(CNc2nc(OC[C@@]34CCCN3C[C@H](F)C4)nc3c2CCN(c2cc(O)cc4ccc(F)c(Cl)c24)C3)N1 (stereo partly drawn) [Example 466, 3-(((7-(8-chloro-7-fluoro-3-hydroxynaphthalen-1-yl)-2-(((2R,7aS)-2-fluorohexahydro-1H-pyrrolizin-7a-yl)methoxy)-5,6,7,8-tetrahydropyrido[3,4-d]pyrimidin-4-yl)amino)methyl)-1,2,5-thiadiazolidine 1,1-dioxide] | 83 | 15 | 14
2 | O=C1NC(=O)[C@]2(CCCN(c3nc(OC[C@@]45CCCN4C[C@H](F)C5)nc4c3CCN(c3c(C5CC5)c(Cl)cc5[nH]ncc35)C4)C2)N1 [Example 470, (R)-7-(7-(6-chloro-5-cyclopropyl-1H-indazol-4-yl)-2-(((2R,7aS)-2-fluorohexahydro-1H-pyrrolizin-7a-yl)methoxy)-5,6,7,8-tetrahydropyrido[3,4-d]pyrimidin-4-yl)-1,3,7-triazaspiro[4.5]decane-2,4-dione] | < 2 | < 2 | < 2
3 | O=C1NC(=O)C2(CCCN(c3nc(OC[C@@]45CCCN4C[C@H](F)C5)nc4c3CCN(c3c5ccccc5cc5[nH]ncc35)C4)C2)N1 (stereo partly drawn) [Example 472, 7-(7-(1H-benzo[f]indazol-4-yl)-2-(((2R,7aS)-2-fluorohexahydro-1H-pyrrolizin-7a-yl)methoxy)-5,6,7,8-tetrahydropyrido[3,4-d]pyrimidin-4-yl)-1,3,7-triazaspiro [4.5]decane-2,4-dione] | 7 | < 2 | 5
4 | CCc1cccc2cccc(N3CCc4c(nc(OCC56CCCN5CCC6)nc4C4=CCOCCC4)C3)c12 [Example 474, 7-(8-ethylnaphthalen-1-yl)-2-((hexahydro-1H-pyrrolizin-7a-yl)methoxy)-4-(2,5,6,7-tetrahydrooxepin-4-yl)-5,6,7,8-tetrahydropyrido[3,4-d]pyrimidine] | 79500 | 51700 | 48500
5 | CCc1cccc2cccc(N3CCc4c(nc(OCC56CCCN5CCC6)nc4N4CCn5ncc(P(C)(C)=O)c5C4)C3)c12 [Example 475, (5-(7-(8-ethylnaphthalen-1-yl)-2-((tetrahydro-1H-pyrrolizin-7a(5H)-yl)methoxy)-5,6,7,8-tetrahydropyrido[3,4-d]pyrimidin-4-yl)-4,5,6,7-tetrahydropyrazolo[1,5-a]pyrazin-3-yl)dimethylphosphine oxide] | 6600 | 13200 | 8630
6 | CCc1cccc2cccc(N3CCc4c(nc(OCC56CCCN5CCC6)nc4N4CCn5nc(P(C)(C)=O)cc5C4)C3)c12 [Example 476, (5-(7-(8-ethylnaphthalen-1-yl)-2-((tetrahydro-1H-pyrrolizin-7a(5H)-yl)methoxy)-5,6,7,8-tetrahydropyrido[3,4-d]pyrimidin-4-yl)-4,5,6,7-tetrahydropyrazolo[1,5-a]pyrazin-2-yl)dimethylphosphine oxide] | 5370 | 8990 | 16900
7 | CCc1cccc2cccc(N3CCc4c(nc(OCC56CCCN5CCC6)nc4N4CCCc5[nH]cnc5C4)C3)c12 [Example 477, 5-(7-(8-ethylnaphthalen-1-yl)-2-((hexahydro-1H-pyrrolizin-7a-yl)methoxy)-5,6,7,8-tetrahydropyrido[3,4-d]pyrimidin-4-yl)-1,4,5,6,7,8-hexahydroimidazo[4,5-c]azepine] | 2030 | 1400 | 1670
8 | CCc1cccc2cccc(N3CCc4c(nc(OCC56CCCN5CCC6)nc4C4CCCOCC4)C3)c12 (stereo not drawn) [Example 478, 7-(8-ethylnaphthalen-1-yl)-2-((hexahydro-1H-pyrrolizin-7a-yl)methoxy)-4-(oxepan-4-yl)-5,6,7,8-tetrahydropyrido[3,4-d]pyrimidine] | 24700 | 13000 | 14500
9 | CCSc1ccc2cc(O)cc(N3CCc4c(nc(OC[C@@]56CCCN5C[C@H](F)C6)nc4N4CCCC5(CNS(=O)(=O)N5)C4)C3)c2c1F (stereo partly drawn) [Example 510, 7-(7-(7-(ethylthio)-8-fluoro-3-hydroxynaphthalen-1-yl)-2-(((2R,7aS)-2-fluorohexahydro-1H-pyrrolizin-7a-yl)methoxy)-5,6,7,8-tetrahydropyrido[3,4-d]pyrimidin-4-yl)-2-thia-1,3,7-triazaspiro[4.5]decane 2,2-dioxide] | 39 | 158 | 47
10 | Cc1cc2[nH]ncc2c(N2CCc3c(nc(OCC4(CN(C)C)CC4)nc3N3CCCC4(CNS(=O)(=O)N4)C3)C2)c1C (stereo not drawn) [Example 511, 7-(7-(5,6-dimethyl-1H-indazol-4-yl)-2-((1-((dimethylamino)methyl)cyclopropyl)methoxy)-5,6,7,8-tetrahydropyrido[3,4-d]pyrimidin-4-yl)-2-thia-1,3,7-triazaspiro[4.5]decane 2,2-dioxide] | 13 | 47 | 15
11 | CCc1cccc2cccc(N3CCc4c(nc(OCC5(CN(C)C)CC5)nc4NCC(O)Cn4cccn4)C3)c12 (stereo not drawn) [Example 526, 1-((2-((1-((dimethylamino)methyl)cyclopropyl)methoxy)-7-(8-ethylnaphthalen-1-yl)-5,6,7,8-tetrahydropyrido[3,4-d]pyrimidin-4-yl)amino)-3-(1H-pyrazol-1-yl)propan-2-ol] | 5830 | 9170 | 5810
12 | CCc1cccc2cccc(N3CCc4c(nc(OCC56CCCN5CCC6)nc4C(=O)NC)C3)c12 [Example 591, 7-(8-ethylnaphthalen-1-yl)-N-methyl-2-((tetrahydro-1H-pyrrolizin-7a(5H)-yl)methoxy)-5,6,7,8-tetrahydropyrido[3,4-d]pyrimidine-4-carboxamide] | 37700 | > 100000 | 37600
13 | O=S1(=O)NCC2(CCCN(c3nc(OC[C@@]45CCCN4C[C@H](F)C5)nc4c3CCN(c3c5ccccc5cc5[nH]ncc35)C4)C2)N1 (stereo partly drawn) [Example 612, 7-(7-(1H-benzo[f]indazol-4-yl)-2-(((2R,7aS)-2-fluorotetrahydro-1H-pyrrolizin-7a(5H)-yl)methoxy)-5,6,7,8-tetrahydropyrido[3,4-d]pyrimidin-4-yl)-2-thia-1,3,7-triazaspiro[4.5]decane 2,2-dioxide] | < 2 | < 2 | < 2
14 | CC1(O)CCCN(c2nc(OCC34CCCN3CCC4)nc3c2CCN(c2ccc(F)c4sc(N)nc24)C3)C1 (stereo not drawn) [Example 625, 1-(7-(2-amino-7-fluorobenzo[d]thiazol-4-yl)-2-((tetrahydro-1H-pyrrolizin-7a(5H)-yl)methoxy)-5,6,7,8-tetrahydropyrido[3,4-d]pyrimidin-4-yl)-3-methylpiperidin-3-ol] | 12200 | 25900 | 12800
15 | Nc1nc2c(N3CCc4c(nc(OCC56CCCN5CCC6)nc4N4CCCC5(C4)NC(=O)NC5=O)C3)ccc(F)c2s1 (stereo not drawn) [Example 626, 7-(7-(2-amino-7-fluorobenzo[d]thiazol-4-yl)-2-((tetrahydro-1H-pyrrolizin-7a(5H)-yl)methoxy)-5,6,7,8-tetrahydropyrido[3,4-d]pyrimidin-4-yl)-1,3,7-triazaspiro[4.5]decane-2,4-dione] | 6470 | 2300 | 3030
16 | CCc1c(F)ccc2cc(O)cc(N3CCc4c(nc(N5CC(N)C5)nc4N4CCCC5(C4)NC(=O)NC5=O)C3)c12 (stereo not drawn) [Example 627, 7-(2-(3-aminoazetidin-1-yl)-7-(8-ethyl-7-fluoro-3-hydroxynaphthalen-1-yl)-5,6,7,8-tetrahydropyrido[3,4-d]pyrimidin-4-yl)-1,3,7-triazaspiro[4.5]decane-2,4-dione] | 42 | 23 | 23
17 | CCc1c(F)ccc2cc(O)cc(N3CCc4c(nc(OC[C@@]56CCCN5C[C@H](F)C6)nc4N4CCCC5(C4)NC(=O)CC54COC4)C3)c12 (stereo partly drawn) [Example 629, 7-(7-(8-ethyl-7-fluoro-3-hydroxynaphthalen-1-yl)-2-(((2R,7aS)-2-fluorotetrahydro-1H-pyrrolizin-7a(5H)-yl)methoxy)-5,6,7,8-tetrahydropyrido[3,4-d]pyrimidin-4-yl)-2-oxa-7,11-diazadispiro[3.0.55.34]tridecan-12-one] | 35 | 51 | 10
18 | CCc1c(F)ccc2cc(O)cc(N3CCc4c(nc(OC[C@@]56CCCN5C[C@H](F)C6)nc4N4CCCn5nc(CCO)cc5C4)C3)c12 [Example 630, 5-ethyl-6-fluoro-4-(2-(((2R,7aS)-2-fluorotetrahydro-1H-pyrrolizin-7a(5H)-yl)methoxy)-4-(2-(2-hydroxyethyl)-7,8-dihydro-4H-pyrazolo[1,5-a][1,4]diazepin-5(6H)-yl)-5,8-dihydropyrido[3,4-d]pyrimidin-7(6H)-yl)naphthalen-2-ol] | 4 | 6 | 8
19 | Cc1cc2[nH]nnc2c(N2CCc3c(nc(OCC45CCCN4CCC5)nc3N3CCOC[C@@](C)(O)C3)C2)c1C [Example 638, (S)-4-(7-(5,6-dimethyl-1H-benzo[d][1,2,3]triazol-4-yl)-2-((tetrahydro-1H-pyrrolizin-7a(5H)-yl)methoxy)-5,6,7,8-tetrahydropyrido[3,4-d]pyrimidin-4-yl)-6-methyl-1,4-oxazepan-6-ol] | 2950 | 10800 | 5120
20 | Cc1cc2[nH]nnc2c(N2CCc3c(nc(OCC45CCCN4CCC5)nc3N3CCCC4(CNS(=O)(=O)N4)C3)C2)c1C (stereo not drawn) [Example 639, 7-(7-(5,6-dimethyl-1H-benzo[d][1,2,3]triazol-4-yl)-2-((tetrahydro-1H-pyrrolizin-7a(5H)-yl)methoxy)-5,6,7,8-tetrahydropyrido[3,4-d]pyrimidin-4-yl)-2-thia-1,3,7-triazaspiro[4.5]decane 2,2-dioxide] | 241 | 1280 | 357
